Bioassay records (PubChem BioAssay)
Rows were chosen to be rich in hits. Some 16% of all compounds tested hit in one or more screens of this group.
uPA surface inh = inhibitors of cell surface uPA generation. cell surface uPA generation assay, qHTS. Potency, µM (highest dose often 38.3 µM), usual class: inhibitors. hit rate 0.31% among 330,000; active means well fitted inhibition curve with a large enough effect; inconclusive means small, poorly fitted or top-dose-only effect; inactive means no such curve, though single readings can be large or run the other way; tested in mouse RAW 264.7 cells; further: nearly all actives have a fitted effect of over 55% in size
TDP1 inh = blocks human tyrosyl-DNA phosphodiesterase 1. Q9NUW8. recombinant TDP1, AlphaScreen DNA substrate cleavage. Potency, µM (top dose mostly 130 µM), actives largely listed as inhibitors. hit rate 0.28% among 350,000. AID 485290; further: nearly all actives have a fitted effect of over 40% in size
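Signal: AlphaScreen proximity between streptavidin donor and anti-FITC acceptor beads on intact substrate. Reaction: Tdp1 1 nM, substrate 15 nM final, 5 min RT after 15 min compound preincubation.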
TDP1 cell noCPT = qHTS for Inhibitors of human tyrosyl-DNA phosphodiesterase 1 (TDP1): qHTS in cells in absence of CPT; DT40 Tdp1-/- hTDP1 cells, no CPT, ATP luminescence, 48 h; Potency, µM (doses to about 46.2 µM), actives largely listed as inhibitors; hit rate 15% among 420,000; further: nearly all actives have a fitted effect of over 55% in size
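Chicken DT40 Tdp1-/- cells stably complemented with human TDP1 were seeded at 400 cells/well with DMSO in place of 20 nM camptothecin. After compound pinning, cells grew at least 48 hr at 37 °C; viability read by CellTiter-Glo luminescence.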
TDP1 cell CPT = DT40-hTDP1 cell growth loss with CPT; chicken DT40 Tdp1-/-;hTDP1 cells + 20 nM CPT, ATP luminescence, 48 h; Potency, µM (titrated, usually from 46.2 µM), actives largely listed as inhibitors; hit rate 12% among 420,000; further: nearly all actives have a fitted effect of over 55% in size
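Chicken DT40 Tdp1-/- cells complemented with human TDP1, 400 cells/well, exposed to compounds plus 20 nM camptothecin for at least 48 h at 37 C; viability read as ATP content by CellTiter-Glo luminescence.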
miR-21 reporter = miR-21 reporter, rising signal | HeLa miR-21 FLuc reporter, luciferase, 48 h | Potency, µM (doses to about 38.3 µM) | 340,000 tested, under 10 active | AID 2288; active = well fitted rising curve with a large enough effect; inconclusive = small, poorly fitted or top-dose-only effect; inactive = no such curve, though single readings can be large or run the other way;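 note: miR-21 action dims this reporter so a rising signal means less miR-21 action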
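HeLa cells stably expressing CMV-driven firefly luciferase with a downstream miR-21 binding sequence, endogenously expressing miR-21, were treated with titrations (up to about 40uM final) for 48 hours at 37 degree Celsius. Luciferase luminescence was read after lysis.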
Numbers stand for hits. Unless noted, the call rests on the fitted dose curve; in most records, active means well fitted curve in the direction sought with a large enough effect; inconclusive means small, poorly fitted or top-dose-only effect, or another doubt; inactive means no such curve, though single readings can be large; an effect the other way counts as inactive or inconclusive.

For CC(C)OC(=O)N(C)C[C@@H]1OCc2ccccc2-c2c(n(C)c3ccccc23)C(=O)N([C@@H](C)CO)C[C@H]1C the results were TDP1 cell noCPT inactive and TDP1 cell CPT inactive.
C[C@@H]1CN([C@H](C)CO)C(=O)c2c(c3ccccc3n2C)-c2ccccc2CO[C@H]1CN(C)C(=O)NC1CCCCC1 was read as TDP1 cell noCPT 25.9µM and TDP1 cell CPT 18.4µM.
Screening Cc1noc(C)c1C(=O)N(C)C[C@@H]1OCc2ccccc2-c2c(n(C)c3ccccc23)C(=O)N([C@H](C)CO)C[C@H]1C returned TDP1 cell noCPT 18.4µM and TDP1 cell CPT inconclusive.
COc1ccc(CNC(=O)c2cccc3c2C(=O)N(CC2CCCO2)C3)cc1 (stereo not given) was read as uPA surface inh inactive, TDP1 cell noCPT inconclusive, TDP1 cell CPT inactive and miR-21 reporter inactive.
`C=CCn1c(SCC(=O)c2ccc(O)c(O)c2)nnc1-c1cccc(OC)c1` gave uPA surface inh inconclusive, TDP1 inh inactive, TDP1 cell noCPT 14.6µM and TDP1 cell CPT 14.6µM.
Screening C=CCn1c(SCC(=O)c2ccc(O)c(O)c2)nnc1-c1ccc(OC)cc1 returned uPA surface inh inconclusive, TDP1 cell noCPT 16.4µM and TDP1 cell CPT 20.6µM.
C=CCn1c(SCC(=O)c2ccc(O)c(O)c2)nnc1-c1ccc(C)cc1 was read as uPA surface inh inconclusive, TDP1 inh inactive, TDP1 cell noCPT inconclusive and TDP1 cell CPT 16.4µM.
COC(=O)C(C)Oc1cc(C)ccc1COc1ccc(-n2nc(C)n(C(F)F)c2=O)cc1 (stereo not given) was read as uPA surface inh inactive, TDP1 cell noCPT inactive and TDP1 cell CPT inactive.
CCC(C(=O)N1CCN(c2cc(C)ccc2C)CC1)n1nc(C)n2c(cc3occc32)c1=O (stereo not given) was read as TDP1 inh inactive, TDP1 cell noCPT inconclusive, TDP1 cell CPT inconclusive and miR-21 reporter inactive.
`CCOC(=O)[C@]12CCC=C1N(Cc1cccc3ccccc13)C(=O)[C@H](CC(=O)N1CCCC1)C2` gave TDP1 cell noCPT 23.1µM and TDP1 cell CPT 18.4µM.
CCOC(=O)[C@]12CCC=C1N(Cc1cccc3ccccc13)C(=O)[C@H](CC(=O)N1CCSCC1)C2 was read as TDP1 cell noCPT 18.4µM and TDP1 cell CPT inconclusive.
For CCOC(=O)[C@]12CCCC=C1N(Cc1cccc3ccccc13)C(=O)[C@H](CC(=O)N1CCCCC1)C2 the results were TDP1 cell noCPT 25.9µM and TDP1 cell CPT 18.4µM.
For COC(=O)[C@@]12C[C@@H](CC(=O)N3CCN(C(=O)c4ccco4)CC3)C(=O)N(Cc3cccc4ccccc34)C1=CCC(C)(C)C2 the results were TDP1 cell noCPT 18.4µM and TDP1 cell CPT inconclusive.
Screening COc1cccc(-c2csc(/C(C#N)=C/Nc3cc4oc5ccccc5c4cc3OC)n2)c1 returned uPA surface inh inactive, TDP1 inh inactive, TDP1 cell noCPT inactive, TDP1 cell CPT inactive and miR-21 reporter inactive.
Screening Cc1ccc(Cl)cc1N1CCN(Cc2nnnn2C2CCCCC2)CC1 returned uPA surface inh inactive, TDP1 inh inactive, TDP1 cell noCPT inactive, TDP1 cell CPT inactive and miR-21 reporter inactive.
For COc1ccc(CCNC(=O)CN2C(=O)NC3(CCCCC3)C2=O)cc1 the results were uPA surface inh inactive, TDP1 inh inactive, TDP1 cell noCPT inactive and TDP1 cell CPT inactive.
COc1ccc(C(=O)Nc2ccc3cn[nH]c3c2)c(OC)c1 was read as uPA surface inh inactive, TDP1 inh inactive, TDP1 cell noCPT inactive, TDP1 cell CPT inactive and miR-21 reporter inactive.
For O=C(COC(=O)c1ccccn1)Nc1ccccc1OC(F)F the results were uPA surface inh inactive, TDP1 inh inactive, TDP1 cell noCPT inactive, TDP1 cell CPT inactive and miR-21 reporter inactive.
Screening CCOC(=O)N1CCN(C(=O)C[C@@H]2C[C@@]3(C(=O)OC)CC(C)(C)CC=C3N(Cc3cccc4ccccc34)C2=O)CC1 returned TDP1 cell noCPT 18.4µM and TDP1 cell CPT 16.4µM.
For CCOC(=O)N1CCN(C(=O)C[C@@H]2C[C@@]3(C(=O)OC)CCCCC=C3N(Cc3cccc4ccccc34)C2=O)CC1 the results were TDP1 cell noCPT 20.6µM and TDP1 cell CPT inconclusive.
CCOC(=O)[C@]12CCCC=C1N(Cc1cccc3ccccc13)C(=O)[C@H](CC(=O)N1CCOCC1)C2 was read as TDP1 cell noCPT inactive and TDP1 cell CPT inconclusive.
For CCOC(=O)[C@]12CCC=C1N(Cc1cccc3ccccc13)C(=O)[C@H](CC(=O)N1CCCCC1)C2 the results were TDP1 cell noCPT 25.9µM and TDP1 cell CPT inconclusive.
`COc1ccc(-n2c(SCC(=O)Nc3ccc(C(N)=O)cc3)nc3c([nH]c4ccccc43)c2=O)cc1OC` gave uPA surface inh inactive, TDP1 inh inactive, TDP1 cell noCPT inconclusive, TDP1 cell CPT inconclusive and miR-21 reporter inactive.
CC1=NN(C(N)=S)C(=O)C1N=Nc1ccccc1 (stereo not given) was read as uPA surface inh inactive, TDP1 inh inactive, TDP1 cell noCPT inconclusive, TDP1 cell CPT inconclusive and miR-21 reporter inactive.
`CC1=NN(C(N)=S)C(=O)C1N=Nc1ccc(Cl)cc1` (stereo not given) gave uPA surface inh inactive, TDP1 inh inactive, TDP1 cell noCPT 1.46µM, TDP1 cell CPT 0.517µM and miR-21 reporter inactive.
CC1=NN(C(N)=S)C(=O)C1N=Nc1ccc(Br)cc1 (stereo not given) was read as uPA surface inh inactive, TDP1 inh inactive, TDP1 cell noCPT inconclusive, TDP1 cell CPT 20.6µM and miR-21 reporter inactive.
Screening CC1=NN(C(N)=S)C(=O)C1N=Nc1cccc2ccccc12 (stereo not given) returned TDP1 inh inactive and miR-21 reporter inactive.
Screening CC1=NN(C(N)=S)C(=O)C1N=Nc1cccc(Cl)c1C (stereo not given) returned uPA surface inh inactive, TDP1 cell noCPT 8.2µM, TDP1 cell CPT 13µM and miR-21 reporter inactive.
COc1ccc(NC(=O)CSc2ccccn2)c([N+](=O)[O-])c1 was read as uPA surface inh inactive, TDP1 cell noCPT inactive, TDP1 cell CPT inactive and miR-21 reporter inactive.
`COc1ccc(-c2c(C)oc3c(CN4CCN(C)CC4)c(O)ccc3c2=O)cc1` gave uPA surface inh inactive, TDP1 inh inactive, TDP1 cell noCPT inactive, TDP1 cell CPT inactive and miR-21 reporter inactive.
`Cc1cn([C@H]2C[C@H](O)[C@@H](CCC(=O)NCC(c3ccccc3)c3ccccc3)O2)c(=O)[nH]c1=O` gave TDP1 cell noCPT inactive and TDP1 cell CPT inactive.
For CNc1nc(Oc2ccc3sc(C)nc3c2)c2sccc2n1 the results were TDP1 cell noCPT 20.6µM and TDP1 cell CPT 20.6µM.
`COc1cc2c(C#CCCO)c(-c3ccsc3)oc(=O)c2cc1OC` gave uPA surface inh inconclusive, TDP1 inh inactive, TDP1 cell noCPT 8.2µM and TDP1 cell CPT inconclusive.
